Molecular target: T1, Coagulation factor X (Oryctolagus cuniculus) (UniProt O19045)
T1 sequence (whole entry): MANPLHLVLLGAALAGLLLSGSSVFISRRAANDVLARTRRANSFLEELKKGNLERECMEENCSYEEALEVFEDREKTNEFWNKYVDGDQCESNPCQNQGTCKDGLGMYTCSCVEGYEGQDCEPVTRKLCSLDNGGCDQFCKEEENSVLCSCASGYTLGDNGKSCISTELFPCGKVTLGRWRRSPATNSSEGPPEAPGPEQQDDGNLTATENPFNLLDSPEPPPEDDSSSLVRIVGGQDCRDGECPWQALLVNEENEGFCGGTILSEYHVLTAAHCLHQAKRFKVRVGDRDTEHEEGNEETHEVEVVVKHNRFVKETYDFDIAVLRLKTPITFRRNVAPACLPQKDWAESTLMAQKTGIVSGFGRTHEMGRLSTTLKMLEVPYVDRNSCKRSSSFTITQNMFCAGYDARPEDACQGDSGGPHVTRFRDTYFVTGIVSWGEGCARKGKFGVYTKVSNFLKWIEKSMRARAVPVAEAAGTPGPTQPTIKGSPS
Assay: Inhibition of F10a in rabbit plasma assessed as ratio of compound prothrombin time to vehicle control prothrombin time at 100 nM after 2 mins by automatic coagulation analyser

| Ratio | Compound |
| --- | --- |
| 2.14 | NC(=O)c1ccc(NC(=O)c2ccc(-n3ccccc3=O)cc2)c(NC(=O)c2ccc(Br)cc2)c1 |
| 2.58 | NC(=O)c1ccc(NC(=O)c2ccc(-n3ccccc3=O)cc2)c(NC(=O)c2ccc(Cl)c(Cl)c2)c1 |

— ChEMBL document CHEMBL3612033, “Synthesis of 3,4-diaminobenzoyl derivatives as factor Xa inhibitors” (Eur J Med Chem, 2015)
